{"sequences": {"note": "Chains of the proteins cited; added tags and fusions are not shown.", "UniProt P34972, whole entry": "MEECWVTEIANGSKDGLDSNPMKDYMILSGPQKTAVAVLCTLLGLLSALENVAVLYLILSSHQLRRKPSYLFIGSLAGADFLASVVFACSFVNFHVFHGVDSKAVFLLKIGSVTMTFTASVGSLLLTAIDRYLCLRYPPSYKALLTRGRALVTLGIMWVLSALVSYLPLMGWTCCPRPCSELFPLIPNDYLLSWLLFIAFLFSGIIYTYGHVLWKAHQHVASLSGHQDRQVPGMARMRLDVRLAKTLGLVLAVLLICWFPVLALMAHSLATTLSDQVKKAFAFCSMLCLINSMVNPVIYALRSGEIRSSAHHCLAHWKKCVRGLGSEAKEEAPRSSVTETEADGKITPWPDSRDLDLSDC"}, "source": "paper PMC8838898", "about": "“Identification of Novel Cannabinoid CB2 Receptor Agonists from Botanical Compounds and Preliminary Evaluation of Their Anti-Osteoporotic Effects” (Molecules, 2022)", "biological_target": "T1, CB2R (Homo sapiens, UniProt P34972)", "T1 construct": "expressed in transfected cells; host or cells: HEK293 cells stably transfected with pIRES2-EGFP-CB2, pGL4.29 [luc2P/CRE/Hygro] and pRL-TK", "experiment": "forskolin-stimulated cAMP accumulation assay in HEK293-CB2 cells", "assay_type": "cell-based", "protocol": "After treatment, the cell supernatant was diluted with PBS (pH 7.2–7.4). The cells were lysed by repeated freeze–thaw cycles and being centrifuged for 20 min at 2000–3000 r.p.m. The concentration of cAMP in the cell lysate was determined according to the instructions of the cAMP kit."}
{"molecule": "CCCCCCC(C)(C)c1cc(OC)c([C@@H]2C=C(CO)[C@@H]3C[C@H]2C3(C)C)c(OC)c1", "note": "[HU308]", "values": [{"measurement": "IC50", "value": 0.0542, "unit": "µM"}]}
